Experimental data published in PubChem BioAssay AID1792 (The Scripps Research Institute Molecular Screening Center, 2009).
Only a part is listed here, and it is no random draw. Active and inactive are the calls of the source. No stated cut-off is given here; in the data, active means inhibition above about 75%; inactive means the rest.

Protein sequences, listed by entry. Tags and fused reporters are not part of them. Lines headed by an entry give the natural chain unless they say otherwise; changes in a name come on top.
UniProt Q9Y5S8: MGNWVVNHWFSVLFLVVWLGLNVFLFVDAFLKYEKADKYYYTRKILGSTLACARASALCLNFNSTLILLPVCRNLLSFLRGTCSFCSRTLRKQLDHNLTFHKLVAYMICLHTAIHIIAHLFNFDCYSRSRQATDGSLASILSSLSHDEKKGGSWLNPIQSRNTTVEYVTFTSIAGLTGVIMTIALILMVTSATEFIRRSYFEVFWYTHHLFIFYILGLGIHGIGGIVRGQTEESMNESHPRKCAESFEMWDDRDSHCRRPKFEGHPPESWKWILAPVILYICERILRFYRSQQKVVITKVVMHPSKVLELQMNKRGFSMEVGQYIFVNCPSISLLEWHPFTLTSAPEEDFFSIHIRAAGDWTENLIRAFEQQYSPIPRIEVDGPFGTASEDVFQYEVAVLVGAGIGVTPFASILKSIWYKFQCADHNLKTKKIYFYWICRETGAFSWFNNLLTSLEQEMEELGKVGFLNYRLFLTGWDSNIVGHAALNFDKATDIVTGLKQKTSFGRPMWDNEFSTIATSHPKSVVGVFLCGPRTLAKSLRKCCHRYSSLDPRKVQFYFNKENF

What follows are molecules tested against NADPH oxidase 1 (Homo sapiens) (UniProt Q9Y5S8) (assay: inhibitors of human NADPH oxidase 1 (Nox1) (AID 1792)). Details: HT29 cells, luminol chemiluminescence ROS; at 6.7 µM; active compounds read high.
For `CCOC(=O)/C(=N/Nc1ccc([N+](=O)[O-])cc1)N1CC1`, the inhibition was inactive: 34%. `O=C(OC1CN2CCC1CC2)c1cccc([N+](=O)[O-])c1` (configuration not stated) was tested, and the inhibition was inactive: -61.3%.
